High-throughput results deposited in PubChem by several laboratories.
ALR inh – inhibitors of human sulfhydryl oxidase ALR; AID 485317; inhibition, % (no concentration beside the values); purified ALR, DTT oxidation, H2O2 HRP-luminol luminescence; hit rate 3.8% among 290,000;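 active means mean and each replicate at 75% or more; inconclusive means only one of the two met; inactive means neither met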;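 further: stock transfer was 7.5 nL into about 7.5 µL; 0% = neutral wells and 100% = wells with inactivated enzyme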
MC4R barr agon – MC4R agonists recruiting beta-arrestin, primary screen, cell-based, luminescence, agonist arm of biased-ligand search | Melanocortin receptor 4 (Homo sapiens), P32245 | U2OS MC4R beta-arrestin complementation; percent of melanotan II response, DMSO zero | activation, % at 8.9 µM | 360,000 tested, 0.98% active | AID 540308, 2011;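 active means activation above a per-plate cutoff, the mean activation of sample wells on that plate plus 3 SD, cut at about 8% in these data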
MC4R antag cAMP – MC4R antagonists of cAMP signaling, primary screen, cell-based, TR-FRET, antagonist arm of biased-ligand search; 360,000 tested, 0.48% active; Melanocortin receptor 4 (Homo sapiens), P32245; MC4R-expressing cells, MTII-stimulated cAMP, LANCE TR-FRET; inhibition, % at 6.5 µM; AID 540295, 2011;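 active means inhibition above its plate's cutoff, the mean of tested wells on that plate plus 3 SD, cut at about 29% in these data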;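 further: 0% = Melanotan II alone and 100% = Melanotan II plus saturating MCL0020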
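Assay system: human MC4R-expressing U2OS cells; reagent: Melanotan II stimulation of cells; dosing: 6.5 µM single dose; timing: compound 30 min, challenge 1 h, detection 1 h; signal: TR-FRET cAMP assay; replicates: one well per compound, no replicates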
Yeast UUG start – yeast start codon fidelity modulation; AID 602363; activity score, % at 18.7 µM; S. cerevisiae UUG-firefly luciferase reporter, luminescence/redox ratio; 0.13% of 350,000 active;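 active means replicate mean at a twofold rise or more, about +100% in these data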;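 further: firefly luciferase made from a UUG start codon reports start codon fidelity; reporter light over untreated wells divided by growth signal over untreated wells; some hits fall short of that in this replicate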
NALP1 inh – NALP1 inflammasome inhibitors in reconstituted yeast, colorimetric, S. cerevisiae, triplicate retest; inhibition, % at 10 µM; S. cerevisiae NALP1/ASC/caspase-1 growth, X-gal OD620, 72 h; 280,000 tested, 0.61% active; in the data active means inhibition mostly above about 24%, no sharp cut-off; inactive means mostly below about 32%
HDAC3 inh – HDAC3 deacetylase inhibitors, primary screen, biochemical, fluorescence, cell-free homogeneous | recombinant HDAC3, fluorogenic peptide/trypsin coupled | inhibition, % at 8.3 µM | 320,000 tested, 0.15% active | Histone deacetylase 3 (Homo sapiens), O15379 | AID 2718, 2010; in the data active means inhibition above about 26%, passing the limit was not always enough; inconclusive means no clear call, values can overlap the other calls
* = called active by the depositor; ? = inconclusive; · = not tested or not shown. Shown are actives, neighbours in structure and some others; about 4.2% of the full set was active somewhere.

The chains behind the UniProt entries cited, without tags or fusion partners.
Melanocortin receptor 4 (Homo sapiens), P32245, UniProt P32245, whole entry, looked up: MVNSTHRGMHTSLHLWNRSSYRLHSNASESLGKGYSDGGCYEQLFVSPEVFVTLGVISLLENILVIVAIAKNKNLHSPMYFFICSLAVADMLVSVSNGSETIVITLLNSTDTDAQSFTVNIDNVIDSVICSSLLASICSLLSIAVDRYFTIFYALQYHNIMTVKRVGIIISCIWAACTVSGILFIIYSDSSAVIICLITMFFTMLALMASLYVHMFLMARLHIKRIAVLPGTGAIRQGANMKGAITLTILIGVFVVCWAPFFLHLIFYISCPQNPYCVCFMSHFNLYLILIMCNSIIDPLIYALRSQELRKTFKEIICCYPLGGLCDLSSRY

SMILES | ALR inh | MC4R barr agon | MC4R antag cAMP | Yeast UUG start | NALP1 inh | HDAC3 inh
COc1ccccc1-c1cc(C(=O)Nc2ccccc2SC)no1 | -10.0 | 8.7* | -8.3 | -21.5 | 13.6 | -2.6
C[C@@H](NC(=O)C[C@@H]1CC[C@H]2[C@@H](COC[C@@H](O)CN2Cc2cc(F)ccc2F)O1)c1ccccc1 | · | · | · | 34.3 | · | ·
Cc1ccc(-c2noc(CCC(=O)Nc3cc(C)ccn3)n2)cc1 | 2.2 | 9.2* | 11.4 | -11.2 | -15.8 | -3.8
Cc1ccc(-c2noc(CCC(=O)Nc3ccccc3C)n2)cc1 | -18.8 | 0.7 | 6.0 | -9.4 | 0.2 | -1.0
CC1CN=C(N(Cc2ccccc2)C(=O)Nc2ccccc2)S1 (stereo not given) | 1.1 | 1.0 | 14.3 | 2.1 | -6.0 | 1.5
O=C(Nc1ccccc1)N(Cc1ccccc1)C1=NCCS1 | 98.7* | -0.1 | -1.2 | -16.6 | -11.7 | -1.4
Cc1cc(C)c(S(=O)(=O)NC2CC3CCC2C3)c(C)c1 (stereo not given) | -12.7 | 8.5* | 18.6 | -21.7 | -0.4 | -1.3
COc1ccc(S(=O)(=O)NC2CC3CCC2C3)cc1Br (stereo not given) | -13.7 | -0.2 | 11.1 | -9.9 | 9.8 | -5.8
COc1cc(-c2nc(-c3ccccc3)c(-c3cccs3)[nH]2)cc(OC)c1OC | 33.8 | -1.4 | 17.5 | -6.8 | 11.1 | -7.1
COc1cc(-c2nc(-c3ccccc3)c(-c3cccs3)[nH]2)cc(OC)c1O | 98.0* | -2.1 | 2.9 | -12.9 | -7.9 | 10.2
Cc1ccc(-c2ccc3c(c2)O[C@H](CN(C)Cc2ccncc2)[C@H](C)CN([C@H](C)CO)S3(=O)=O)cc1 | · | · | · | -4.0 | · | ·
CCOC(=O)Oc1ccc2c(=O)c(Oc3cc(C)cc(C)c3)coc2c1 | -7.7 | -2.0 | -9.8 | 7.9 | -9.7 | 2.0
CCOC(=O)Oc1ccc2c(=O)c(Oc3cccc(C)c3)coc2c1 | 95.9* | -1.7 | 1.3 | -13.3 | -8.2 | 9.9
O=C(CCc1ccc(O)c(O)c1)N/N=C/c1ccc2c(c1)OCO2 | 95.1* | -0.9 | 3.5 | -18.9 | 3.5 | ·
COc1cc(/C=N/NC(=O)c2ccc(-n3cccc3)cc2)ccc1O | 99.3* | -2.0 | 1.3 | · | 14.5 | 4.2
COc1cc(C=NNC(=O)c2ccc(NS(=O)(=O)c3cccs3)cc2)cc(Br)c1O | 77.6* | 0.5 | 9.6 | 2.6 | · | ?
Cc1ccccc1NCC(=O)N/N=C\c1ccc2c(c1)OCO2 | 93.7* | 0.9 | -1.4 | · | -4.0 | 5.7
CC(=O)Nc1ccc(C=NNC(=O)c2ccc(NS(=O)(=O)c3cccs3)cc2)cc1 | 0.9 | 0.0 | -5.3 | -13.1 | · | 19.1
C[C@@H]1CCCCO[C@H](CN(C)C(=O)Nc2ccc(F)cc2)[C@H](C)CN([C@@H](C)CO)C(=O)c2cc(NC(=O)Nc3ccc(C(F)(F)F)cc3)ccc2O1 | · | · | · | -10.5 | · | ·
Cc1c(C(=O)N/N=C/c2ccc(N3CCOCC3)cc2)nc2ccccn12 | 9.6 | -1.8 | -7.3 | · | 3.7 | 9.9

Entries shown so far that contain fluorine:
SMILES | ALR inh | MC4R barr agon | MC4R antag cAMP | Yeast UUG start | NALP1 inh | HDAC3 inh
C[C@@H](NC(=O)C[C@@H]1CC[C@H]2[C@@H](COC[C@@H](O)CN2Cc2cc(F)ccc2F)O1)c1ccccc1 | · | · | · | 34.3 | · | ·
C[C@@H]1CCCCO[C@H](CN(C)C(=O)Nc2ccc(F)cc2)[C@H](C)CN([C@@H](C)CO)C(=O)c2cc(NC(=O)Nc3ccc(C(F)(F)F)cc3)ccc2O1 | · | · | · | -10.5 | · | ·

Results in HDAC3 inh (3 entries from above):
SMILES | HDAC3 inh
Cc1ccc(-c2noc(CCC(=O)Nc3ccccc3C)n2)cc1 | -1.0
CC1CN=C(N(Cc2ccccc2)C(=O)Nc2ccccc2)S1 (stereo not given) | 1.5
O=C(Nc1ccccc1)N(Cc1ccccc1)C1=NCCS1 | -1.4

(list continues)
SMILES | ALR inh | MC4R barr agon | MC4R antag cAMP | Yeast UUG start | NALP1 inh | HDAC3 inh
O=C(O)c1ccc(C=NNC(=O)c2ccccc2NS(=O)(=O)c2cccs2)cc1 | 5.0 | -1.4 | -0.7 | -6.2 | · | -3.0
O=C(NN=Cc1ccc(O)cc1)c1ccccc1NS(=O)(=O)c1cccs1 | 99.4* | -0.6 | 5.7 | -12.6 | · | -1.1
Cc1occc1C(=O)N/N=C/c1ccc2c(c1)OCO2 | -5.0 | -1.5 | 9.9 | · | · | 4.6
Cc1cc(C(=O)N/N=C/c2ccc3c(c2)OCO3)c(C)o1 | 94.6* | 1.6 | -6.1 | -18.1 | -13.0 | -6.2
COc1cc(/C=N/NC(=O)c2nc3ccccn3c2C)cc(OC)c1O | 99.1* | -1.9 | 7.3 | · | 16.4 | -0.8
COc1cc(/C=N\NC(=O)c2c(C)nc3cc(C)ccn23)ccc1O | 96.9* | -1.2 | 0.9 | · | -4.2 | 9.4
O=C(N/N=C/c1ccc2c(c1)OCO2)c1sc2cccc(Cl)c2c1Cl | -1.4 | 8.3* | 3.1 | -5.5 | 39.6 | 4.7
COc1cc(/C=N/NC(=O)c2ccc3c(c2)OCO3)ccc1O | 98.7* | -0.4 | 12.2 | -18.7 | -6.3 | 4.2
COc1cc(/C=N/NC(=O)c2cccs2)ccc1O | 99.1* | 0.6 | 10.1 | -21.3 | -8.3 | 7.5
COc1ccc(/C=N\NC(=O)c2ccc(-c3ccccc3)cc2)cc1COC(C)=O | -1.0 | 9.1* | 0.4 | -18.3 | 13.3 | ·
O=C(N/N=C/c1ccc2c(c1)OCO2)c1sc2cc(Cl)ccc2c1Cl | -0.6 | -0.4 | -3.0 | · | 17.3 | 2.9
COc1ccc(/C=N/NC(=O)c2ccc3c(c2)OCO3)cc1 | -2.7 | 1.1 | 5.8 | -3.6 | 14.2 | 4.2
C[C@H](CO)N1C[C@H](C)[C@H](CN(C)S(=O)(=O)c2ccccc2)Oc2ncc(C#Cc3ccc(C(F)(F)F)cc3)cc2C1=O | · | · | · | -5.0 | · | ·
COc1ccc(CN2CCC(C)=CC2C)cc1 (stereo not given) | · | · | · | -9.8 | · | ·
CN(C)c1ccc(/C=N/NC(=O)c2ccc3c(c2)OCCO3)cc1 | 98.0* | -3.2 | -1.4 | 23.7 | 8.4 | 5.1
COc1cccc(NC(=O)C23CCC(C)(C(=O)O2)C3(C)C)c1 (stereo not given) | -4.7 | -0.4 | -6.5 | -19.3 | 38.8* | -1.2
Nc1ccc(OCc2ccccc2)cc1 | 97.0* | -1.1 | -2.4 | -25.9 | -50.6 | 1.5
Nc1ccc(OCCc2ccccc2)cc1 | 31.0 | -1.2 | 10.0 | -8.4 | 3.1 | -4.1
CCN(Cc1ccccc1)Cc1ccc(OCc2ccccc2)cc1 | 0.0 | 2.1 | 12.0 | -13.7 | 37.9* | 3.0
C[C@@H](NC(=O)C[C@H]1C=C[C@H](NC(=O)CN2CCOCC2)[C@@H](CO)O1)c1ccccc1 | · | · | · | -2.2 | · | ·
C[C@@H]1CN([C@@H](C)CO)C(=O)c2cc(C#Cc3ccccc3F)cnc2O[C@H]1CN(C)C(=O)c1ccc2c(c1)OCO2 | · | · | · | 2.8 | · | ·
CC(C)(C)NC(=O)CSc1nc2ccc(Nc3nc(N4CCOCC4)nc(N4CCOCC4)n3)cc2s1 | 99.2* | 0.6 | 16.3 | · | 2.6 | 5.8
Cc1ccc(NC(=O)CSc2nc3ccc(Nc4nc(N5CCOCC5)nc(N5CCOCC5)n4)cc3s2)cc1 | -5.2 | -1.3 | -0.4 | -13.4 | 7.1 | 2.8
CC(=O)CSc1nc2ccc(Nc3nc(N4CCOCC4)nc(N4CCOCC4)n3)cc2s1 | 99.0* | -1.3 | 2.3 | -7.9 | 15.8 | 10.4
CCN(CC)c1ccc(CNC23CN4CN(CN(C4)C2)C3)cc1 | 98.1* | -1.0 | -1.7 | -2.1 | 20.6 | 3.0
Cc1ccc(S(=O)(=O)N2CCOCC2)cc1NC(=O)CSc1nccn1C | · | -0.6 | 14.9 | · | -6.8 | -3.8
CC(C)N(C(=S)Nc1cc(S(=O)(=O)N2CCOCC2)ccc1Cl)c1ccccc1 | · | -2.1 | 15.3 | -9.5 | 59.3* | ·
